Reference: ChEMBL document CHEMBL1149679, “Discovery of selective imidazole-based inhibitors of mammalian 15-lipoxygenase: highly potent against human enzyme within a cellular environment” (Bioorg Med Chem Lett, 2007)
pIC50: −log10 of the molar value.

Assays:
[1] = target: T1, Polyunsaturated fatty acid lipoxygenase ALOX15 (Oryctolagus cuniculus, UniProt P12530); assay: Inhibition of rabbit 15-lipoxygenase in presence of arachidonic acid
T1 sequence (P12530 whole entry): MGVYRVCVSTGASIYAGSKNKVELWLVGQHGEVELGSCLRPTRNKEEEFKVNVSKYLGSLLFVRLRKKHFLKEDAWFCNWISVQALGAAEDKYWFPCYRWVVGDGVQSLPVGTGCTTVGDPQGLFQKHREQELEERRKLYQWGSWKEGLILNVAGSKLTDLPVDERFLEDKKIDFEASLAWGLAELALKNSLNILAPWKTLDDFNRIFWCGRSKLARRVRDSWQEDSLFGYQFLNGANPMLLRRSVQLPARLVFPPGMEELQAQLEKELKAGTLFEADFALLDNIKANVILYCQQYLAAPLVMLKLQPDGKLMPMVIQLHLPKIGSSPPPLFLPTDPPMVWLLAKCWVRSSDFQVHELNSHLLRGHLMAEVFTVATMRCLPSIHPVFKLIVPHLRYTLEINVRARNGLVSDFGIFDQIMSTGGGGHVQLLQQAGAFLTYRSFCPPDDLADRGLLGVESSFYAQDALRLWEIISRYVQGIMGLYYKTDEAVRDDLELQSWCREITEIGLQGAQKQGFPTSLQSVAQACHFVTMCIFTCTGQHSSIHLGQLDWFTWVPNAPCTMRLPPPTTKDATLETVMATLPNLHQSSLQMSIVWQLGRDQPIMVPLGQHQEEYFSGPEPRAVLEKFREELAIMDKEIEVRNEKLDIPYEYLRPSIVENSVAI

[2] = target: T1, Polyunsaturated fatty acid lipoxygenase ALOX15; assay: Inhibition of rabbit 15-lipoxygenase in presence of linoleic acid

- pIC50 [1]: 7.12
- pIC50 [2]: 8.52
SMILES: CCN([C@@H]1CCN(C(C)c2ccc(F)cc2)C1)S(=O)(=O)NCCc1nc(-c2cccs2)[nH]c1-c1ccc(OC)cc1 (some centres not stated)
